Assay results from paper PMC6553790 (PLoS Pathogens, 2019).

Tested on: P. falciparum Cam3.II lines
Assay: Isobologram analyses (fixed-ratio drug combinations)
Format: cell-based, Plasmodium falciparum
Details: combined with WLL; Trophozoites, 3 hr exposure; Cam3.II K13WT
Protocol: Assays were performed with fixed ratios of drug combinations (1:0, 4:1, 2:1, 1:1, 1:2, 1:4, and 0:1), tested in duplicate. Combinations were prepared from 16×IC50 drug stocks and tested across a range of two-fold dilutions. Assays were conducted with asynchronous cultures exposed for 72 hr or with tightly synchronized rings or trophozoites (tested at 0–3 hr or 24–27 hr post-invasion, respectively) exposed for 3 hr. Post-pulse drug washouts were conducted as described above for in vitro determination of IC50 levels. IC50 values were derived for each compound tested alone, and fractional IC50 (FIC50) values were determined for each compound tested in combination (FIC50 = […]) and plotted for each drug combination. For each combination, the mean of the sums of FIC50 values at each combination (mean ΣFIC50) was also calculated and the results illustrated using heat maps.

## CN(C)c1ccc2nc3ccc(=[N+](C)C)cc-3sc2c1 [MB, methylene blue]
  Mean of the sums of FIC50 (mean ΣFIC50): 0.98
